ChEMBL document CHEMBL5696444 (Nat Commun, 2017)

Protein sequences, listed by entry. Tags and fused reporters are not part of them. Lines headed by an entry give the natural chain unless they say otherwise; changes in a name come on top.
UniProt P49761: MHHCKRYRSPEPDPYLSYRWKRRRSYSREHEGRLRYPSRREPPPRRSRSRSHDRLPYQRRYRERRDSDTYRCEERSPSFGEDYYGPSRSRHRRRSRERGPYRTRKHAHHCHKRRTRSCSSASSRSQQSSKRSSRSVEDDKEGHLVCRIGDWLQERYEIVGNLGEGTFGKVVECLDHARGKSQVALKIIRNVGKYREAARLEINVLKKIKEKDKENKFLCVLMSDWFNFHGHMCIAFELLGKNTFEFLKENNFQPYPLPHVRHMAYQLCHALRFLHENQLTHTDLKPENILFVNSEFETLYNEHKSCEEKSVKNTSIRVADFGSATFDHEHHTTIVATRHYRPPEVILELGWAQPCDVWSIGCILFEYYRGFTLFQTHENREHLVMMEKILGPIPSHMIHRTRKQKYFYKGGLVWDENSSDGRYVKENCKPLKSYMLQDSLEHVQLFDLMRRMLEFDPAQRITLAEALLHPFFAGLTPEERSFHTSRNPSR

Molecular target: Dual specificity protein kinase CLK3 (Homo sapiens, UniProt P49761)
Assay: Inhibition of CLK3 (unknown origin) using ULight-CREBtide peptide as substrate incubated for 10 mins in presence of ATP incubated for 45 mins by LANCE Ultra kinase assay
In short: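 Recombinant CLK3 at 300 ng ml−1 in HEPES buffer (pH 7.5) with magnesium acetate, DTT, BSA and Tween-20, using ULight-CREBtide as substrate. After a 10 min preincubation with compound, ATP was added for 45 min. The reaction was stopped with 10 mM EDTA, and signal was read by TR-FRET with a Eu-anti-phospho-CREB (Ser113) antibody.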

Q: `CCOC(=O)c1c(/C(C#N)=C\N)c2ccc(Cl)c(Cl)c2n1C` was tested. Which IC50 did it give?
A: Its IC50 is over 1000 nM.
